Target: Carbonic anhydrase 12 (Homo sapiens, UniProt O43570)

Protein sequences, listed by entry. Tags and fused reporters are not part of them. Lines headed by an entry give the natural chain unless they say otherwise; changes in a name come on top.
UniProt O43570: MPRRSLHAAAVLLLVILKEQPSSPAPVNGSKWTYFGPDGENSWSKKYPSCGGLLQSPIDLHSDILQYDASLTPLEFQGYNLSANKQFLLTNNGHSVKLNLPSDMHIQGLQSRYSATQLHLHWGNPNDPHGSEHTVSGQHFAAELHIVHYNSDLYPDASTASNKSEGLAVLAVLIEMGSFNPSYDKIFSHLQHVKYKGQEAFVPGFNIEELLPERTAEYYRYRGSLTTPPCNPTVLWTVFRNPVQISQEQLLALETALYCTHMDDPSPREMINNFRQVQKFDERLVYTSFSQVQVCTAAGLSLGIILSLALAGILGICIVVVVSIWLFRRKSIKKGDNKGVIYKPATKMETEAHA

Question: `NS(=O)(=O)c1cc(Cl)c(Cl)c(S(N)(=O)=O)c1` [DICHLORPHENAMIDE] was tested. Which Ki did it give?
Answer: 50 nM
